Reference: paper PMC12797171 (2025)

By UniProt entry, the sequences of proteins in these tests, tags left out. Where a name states a change or a piece, a line headed by the entry shows the natural chain unless it says otherwise.
UniProt P30550: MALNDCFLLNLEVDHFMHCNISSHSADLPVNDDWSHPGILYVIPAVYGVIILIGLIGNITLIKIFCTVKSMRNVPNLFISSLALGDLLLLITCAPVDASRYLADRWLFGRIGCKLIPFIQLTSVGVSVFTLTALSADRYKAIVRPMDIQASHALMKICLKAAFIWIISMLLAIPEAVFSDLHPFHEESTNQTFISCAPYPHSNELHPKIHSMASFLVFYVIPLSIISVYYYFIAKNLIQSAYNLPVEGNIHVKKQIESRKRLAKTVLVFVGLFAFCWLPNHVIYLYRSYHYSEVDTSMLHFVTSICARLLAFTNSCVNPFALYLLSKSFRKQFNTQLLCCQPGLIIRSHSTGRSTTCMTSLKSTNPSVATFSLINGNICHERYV

Molecular target: gastrin-releasing peptide receptor (Homo sapiens, UniProt P30550)
Assay: LigandTracer real-time cell binding (PC-3 cells)

B1: LF1 (peptide)
chain: FQWAVGHL
modifications: 177Lu-AAZTA5-Pip N-terminal, D-Phe1, statine (Sta) between His and Leu, C-terminal amide
Kd: 0.12 nM
